esBAF inh: Bmi1 luciferase reporter increase in mESCs, primary screen, esBAF inhibitor project, mouse ES cells, Bmi1 luciferase knock-in, single point; 24 h; 100% = twice the neutral-well signal; reporter increase, % at 12.5 µM; 350,000 tested, 2% active; AID 602393, 2012; in the data active means activation above about 40%; inconclusive means no clear call, values can overlap the other calls;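 further: 0% = median of the plate's neutral control wells and 100% = double that signal; a rise in the Bmi1 reporter signal indicates esBAF inhibition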
E-selectin induc: E-selectin induction in HUVECs, primary screen, imaging, HUVEC, immunofluorescence imaging, single point; 260,000 tested, 0.37% active; activation, % at 7.58 µM; normalized: neutral wells 0, TNF-alpha wells 100;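 active means mean E-selectin-positive cell signal at least 10% of the positive control, reached in at least 60% of replicates, without over 20% cell loss; inconclusive means no rule given, readout overlaps actives, possibly toxicity-flagged; inactive means the rest, including those meeting only one limit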
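Assay system: HUVEC primary endothelial cells. Input: 3,000 HUVEC seeded per well. Doses: one compound dose added by pin transfer. Read-out basis: % PE-positive cells. Benchmarks: TNF-alpha high, DMSO low. Detection: immunofluorescence imaging. Buffer or medium: EGM-2, gelatin.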
PGC1a acetyl inh: inhibitors of PGC1a acetylation signal, primary screen, cell-based, U2OS, AlphaScreen, inhibitor mode; inhibition, % at 15.6 µM; 350,000 tested, 0.17% active; AlphaScreen anti-acetyl-lysine; with virally co-expressed GCN5 acetyltransferase;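 active means every replicate shows inhibition of at least 40%; inconclusive means mean inhibition at least 40% but some replicate below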;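 further: 0% = neutral control wells and 100% = positive control wells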
UUG fidelity: alters start codon recognition fidelity in yeast; S. cerevisiae UUG-firefly luciferase reporter, luminescence/redox ratio; activity score, % at 18.7 µM; actives 0.13% (n = 350,000); AID 602363;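 active = replicate mean at a twofold rise or more, about +100% in these data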;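 also: firefly luciferase made from a UUG start codon reports start codon fidelity; reporter light over untreated wells divided by growth signal over untreated wells; some hits fall short of that in this replicate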
PglD DTNB: C. jejuni PglD acetyltransferase inhibitors, primary screen, biochemical, DTNB colorimetric, single point. UDP-N-acetylbacillosamine N-acetyltransferase PglD (Campylobacter jejuni). purified PglD enzyme, DTNB colorimetric CoA detection. inhibition, % at 12.5 µM. 360,000 tested, 0.098% active; in the data active means inhibition above about 16%, passing the limit was not always enough; inconclusive means no clear call, values can overlap the other calls
Statin myotox sup: suppressors of statin myotoxicity in C2C12 myotubes, primary screen, cell-based, single point, plate reader; C2C12 myotubes + simvastatin, ATP luminescence, 48 h; scaled: DMSO 0, geranylgeraniol control 100; rescue of ATP level, % at 7.49 µM; 330,000 tested, 0.78% active;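 active means mean ATP rescue above about 67%, or every replicate alone reaching that limit, limit read from the data, passing the limit was not always enough; inconclusive means no clear call, values can overlap the other calls; inactive means mean under the limit and some replicate under it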;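 further: myotubes were challenged with 10 µM simvastatin during compound exposure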
Ring1 derepress: Ring1 mRNA increase in mouse ESCs, confirmation, esBAF inhibitor project, cell-based, mouse ESC, RT-qPCR, cherry-pick | shares compounds with esBAF inh | mouse ESC E14, Ring1 mRNA RT-qPCR fold change | fold change at 33 µM | 550 tested, under 10 active | AID 743176, 2013;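 active means Ring1 gene expression raised more than 2-fold over untreated cells in both replicates at either tested dose; inconclusive means only one replicate above 2-fold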;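 further: Ring1 transcript normalised to actin housekeeping signal by TaqMan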
esBAF Fgf4 qPCR: Fgf4 mRNA decrease in mouse ESCs, confirmation, esBAF inhibitor project, cell-based, mouse ESC, RT-qPCR, cherry-pick | mouse ESC E14, Fgf4 mRNA qPCR fold change; active compounds read low | Fgf4 expression fold change at 33 µM | shares compounds with esBAF inh | 550 tested, 4% active;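 active means Fgf4 expression under 0.8 fold of control in both repeat measurements at one or both tested doses; inconclusive means under 0.8 fold in just a single repeat measurement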;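 further: Fgf4 transcript normalised to actin in duplex TaqMan qPCR; cells exposed to compound for 24 h before lysis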
esBAF Bmi1 qPCR: esBAF inhibition via Bmi1 de-repression, confirmation, cell-based, RT-qPCR, mouse ESC, single point, cherry-pick | shares compounds with esBAF inh | mouse ESE14 ES cells, Bmi1 mRNA qPCR fold; active compounds read high | fold change at 33 µM | 550 tested, under 10 active | AID 743180, 2013;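 active means Bmi1 expression fold change above 6 at either tested concentration, seen in replicate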;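 further: higher fold means more Bmi1 de-repression and stronger esBAF inhibition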
A549 cytotox: A549 cell cytotoxicity, cytotoxicity control, plate reader, single point, cherry-pick; shares compounds with esBAF inh; 550 tested, under 10 active; cell viability change % (negative = cytotoxic), % at 25 µM, hits read low; call rule not given here
HepG2 tox SP: HepG2 cell cytotoxicity, cytotoxicity control, plate reader, single point, cherry-pick | shares compounds with esBAF inh | active compounds read low | activity change, negative = inhibition, % at 25 µM | 550 tested, 4% active; in the data active means activity change below about -50%
HEK293 tox SP: HEK293 cell cytotoxicity, cytotoxicity control, plate reader, single point, cherry-pick. shares compounds with esBAF inh. activity change, negative = inhibition, % at 25 µM, hits read low. 550 tested, 3% active. AID 743190, 2013; in the data active means activity change below about -38%, passing the limit was not always enough
An asterisk follows results filed as active. An excerpt weighted towards active compounds, which were near 2.8% of everything screened.

Screening C[C@H](CO)N1C[C@H](C)[C@H](CN(C)C(=O)Nc2cccc(F)c2)Oc2ncc(C#CCN(C)C)cc2C1=O returned esBAF inh -16, E-selectin induc -5, PGC1a acetyl inh 0, UUG fidelity 32, PglD DTNB 0 and Statin myotox sup -6.
Screening Cc1ccc(Nc2nc(Cl)nc(NC(C)(C)C)n2)cc1 returned esBAF inh 77*, UUG fidelity -1, PglD DTNB -3, Statin myotox sup -23, Ring1 derepress 1.1, esBAF Fgf4 qPCR inconclusive, esBAF Bmi1 qPCR 1.9, A549 cytotox 4, HepG2 tox SP -18 and HEK293 tox SP -7.
For CCC(C)(C)c1ccc2c(c1)C(=O)c1ccccc1C2=O the results were esBAF inh 6, E-selectin induc 0, PGC1a acetyl inh 9, UUG fidelity -15, PglD DTNB 0 and Statin myotox sup 1.
CCc1ccc2cc3c(cc2n1)C(=O)c1ccccc1-3 was read as esBAF inh 61*, E-selectin induc 0, PGC1a acetyl inh -26, UUG fidelity -43, PglD DTNB 10, Statin myotox sup -14, Ring1 derepress 1.3, esBAF Fgf4 qPCR inconclusive, esBAF Bmi1 qPCR 3.8, A549 cytotox 9, HepG2 tox SP -11 and HEK293 tox SP 6.
`O=C(Cc1ccccn1)c1ccc(Cl)cc1` gave esBAF inh 100*, E-selectin induc 0, UUG fidelity -6, PglD DTNB 1, Statin myotox sup -5, Ring1 derepress 1.2, esBAF Fgf4 qPCR 0.87, esBAF Bmi1 qPCR 1.6, A549 cytotox -6, HepG2 tox SP 2 and HEK293 tox SP -7.
COc1ccc2c3c([nH]c2c1)[C@@H](CO)N(C(=O)c1ccncc1)CC31CCN(C(=O)c2ccncc2)CC1 was read as E-selectin induc 0 and PGC1a acetyl inh 10.
Nc1c(Cl)cc(N=Nc2ccccc2)cc1Cl was read as esBAF inh 58*, E-selectin induc 1, PGC1a acetyl inh -3, UUG fidelity -5, PglD DTNB -2, Statin myotox sup 15, Ring1 derepress 1, esBAF Fgf4 qPCR 1, esBAF Bmi1 qPCR 1.5, A549 cytotox -3, HepG2 tox SP -91* and HEK293 tox SP -7.
Screening COCC(=O)N1CC[C@@H]2[C@@H](CO)N(C)c3ccc(-c4cccc(F)c4)cc3[C@@H]21 returned esBAF inh -8, E-selectin induc 0, PGC1a acetyl inh 1, UUG fidelity 2, PglD DTNB -2 and Statin myotox sup -8.
CN(CCc1ccccn1)C(=O)CCc1nnc(CCCc2ccccc2)o1 was read as esBAF inh 110*, E-selectin induc 8, Statin myotox sup -2, Ring1 derepress 0.96, esBAF Fgf4 qPCR 0.94, esBAF Bmi1 qPCR 1.3, A549 cytotox -7, HepG2 tox SP -6 and HEK293 tox SP -5.
`Cc1csc(-c2ccc3cc(Cl)cc(Cl)c3n2)n1` gave esBAF inh 71*, PGC1a acetyl inh -6, UUG fidelity -11, PglD DTNB -7, Statin myotox sup -9, Ring1 derepress 1.1, esBAF Fgf4 qPCR 0.97, esBAF Bmi1 qPCR 1.6, A549 cytotox -10, HepG2 tox SP 28 and HEK293 tox SP -11.
Screening COc1cccc(-c2cc(C(=O)NC3CCCCC3)no2)c1 returned esBAF inh 59*, PGC1a acetyl inh 6, UUG fidelity -1, PglD DTNB -3, Statin myotox sup -51, Ring1 derepress 1.2, esBAF Fgf4 qPCR 0.88, esBAF Bmi1 qPCR 1.4, A549 cytotox -4, HepG2 tox SP -18 and HEK293 tox SP -6.
`O=C(NC1CCCCC1)c1cc(-c2cccc(Cl)c2)on1` gave esBAF inh 60*, PGC1a acetyl inh 10, UUG fidelity -12, PglD DTNB -2, Statin myotox sup -2, Ring1 derepress 1.2, esBAF Fgf4 qPCR inconclusive, esBAF Bmi1 qPCR 1.8, A549 cytotox -10, HepG2 tox SP -8 and HEK293 tox SP -4.
O=C(NC1CCCC1)c1cc(-c2ccccc2O)on1 was read as esBAF inh 61*, E-selectin induc 47*, PGC1a acetyl inh 1, UUG fidelity -8, PglD DTNB -1, Statin myotox sup -47, Ring1 derepress 1.3, esBAF Fgf4 qPCR 0.8, esBAF Bmi1 qPCR 1.4, A549 cytotox -13, HepG2 tox SP 9 and HEK293 tox SP -6.
For COc1ccc(-c2cc(C(=O)NC3CCCC3)no2)cc1 the results were esBAF inh 7, PGC1a acetyl inh 7, UUG fidelity -11, PglD DTNB 5 and Statin myotox sup -31.
Screening O=C(NC1CCCC1)c1cc(-c2ccc(F)cc2)on1 returned esBAF inh 30, PGC1a acetyl inh 1, UUG fidelity -19, PglD DTNB -1 and Statin myotox sup -29.
CC(C)c1ccc(NC(=O)c2cccnc2)cc1 was read as esBAF inh 85*, PGC1a acetyl inh -11, UUG fidelity -20, PglD DTNB 4, Statin myotox sup -14, Ring1 derepress 1.1, esBAF Fgf4 qPCR 0.81, esBAF Bmi1 qPCR 1.6, A549 cytotox -1, HepG2 tox SP -27 and HEK293 tox SP 5.

An excerpt from above in order of SMILES length, descending.
Screening COCC(=O)N1CC[C@@H]2[C@@H](CO)N(C)c3ccc(-c4cccc(F)c4)cc3[C@@H]21 returned esBAF inh -8, E-selectin induc 0, PGC1a acetyl inh 1, UUG fidelity 2, PglD DTNB -2 and Statin myotox sup -8.
Screening O=C(NC1CCCC1)c1cc(-c2ccc(F)cc2)on1 returned esBAF inh 30, PGC1a acetyl inh 1, UUG fidelity -19, PglD DTNB -1 and Statin myotox sup -29.
O=C(NC1CCCC1)c1cc(-c2ccccc2O)on1 was read as esBAF inh 61*, E-selectin induc 47*, PGC1a acetyl inh 1, UUG fidelity -8, PglD DTNB -1, Statin myotox sup -47, Ring1 derepress 1.3, esBAF Fgf4 qPCR 0.8, esBAF Bmi1 qPCR 1.4, A549 cytotox -13, HepG2 tox SP 9 and HEK293 tox SP -6.
